# CycPeptMPDB entries from one study

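Lipid, pH, incubation time, direction and concentration are not recorded in the data file. The list need not hold all peptides of the study. Entries at the database's floor value (log10 P of -10) are not listed.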

PAMPA is the parallel artificial membrane permeability assay, which has no cells and reads passive diffusion. Permeability is in 10^-6 cm/s, converted from the database's log10 values; higher is more permeable.

| SMILES | PAMPA (10^-6 cm/s) |
|---|---|
| CC(=O)N1CCC[C@H]1C(=O)N(C)[C@H](CC(C)C)C(=O)N[C@@H]1C(=O)N[C@H](CC(C)C)C(=O)N[C@@H](CC(C)C)C(=O)N[C@H](CC(C)C)C(=O)N(C)[C@H](C)C(=O)N[C@H](CC(C)C)C(=O)N2CCC[C@@H]2C(=O)O[C@@H]1C | 0.69 |
| CC(=O)N1CCC[C@@H]1C(=O)N(C)[C@H](CC(C)C)C(=O)N[C@@H]1C(=O)N[C@H](CC(C)C)C(=O)N[C@@H](CC(C)C)C(=O)N[C@@H](CC(C)C)C(=O)N[C@@H](C)C(=O)N[C@H](CC(C)C)C(=O)N2CCC[C@@H]2C(=O)O[C@@H]1C | 0.0079 |
| CC(=O)N1CCC[C@@H]1C(=O)N(C)[C@H](CC(C)C)C(=O)N[C@@H]1C(=O)N[C@H](CC(C)C)C(=O)N[C@@H](CC(C)C)C(=O)N[C@H](CC(C)C)C(=O)N[C@@H](C)C(=O)N[C@H](CC(C)C)C(=O)N2CCC[C@H]2C(=O)O[C@@H]1C | 0.072 |
| CC(=O)N1CCC[C@@H]1C(=O)N(C)[C@@H](CC(C)C)C(=O)N[C@@H]1C(=O)N(C)[C@@H](CC(C)C)C(=O)N[C@@H](CC(C)C)C(=O)N[C@@H](CC(C)C)C(=O)N(C)[C@@H](C)C(=O)N[C@@H](CC(C)C)C(=O)N2CCC[C@@H]2C(=O)O[C@@H]1C | 0.44 |
| CC(=O)N1CCC[C@@H]1C(=O)N(C)[C@@H](CC(C)C)C(=O)N[C@@H]1C(=O)N[C@H](CC(C)C)C(=O)N(C)[C@@H](CC(C)C)C(=O)N(C)[C@H](CC(C)C)C(=O)N(C)[C@@H](C)C(=O)N[C@H](CC(C)C)C(=O)N2CCC[C@H]2C(=O)O[C@@H]1C | 3.5 |
| CC(=O)N1CCC[C@@H]1C(=O)N(C)[C@H](CC(C)C)C(=O)N[C@@H]1C(=O)N[C@H](CC(C)C)C(=O)N(C)[C@@H](CC(C)C)C(=O)N(C)[C@H](CC(C)C)C(=O)N(C)[C@H](C)C(=O)N[C@H](CC(C)C)C(=O)N2CCC[C@H]2C(=O)O[C@@H]1C | 3.6 |
| CC(=O)N1CCC[C@@H]1C(=O)N(C)[C@@H](CC(C)C)C(=O)N[C@@H]1C(=O)N(C)[C@@H](CC(C)C)C(=O)N[C@H](CC(C)C)C(=O)N(C)[C@@H](CC(C)C)C(=O)N(C)[C@H](C)C(=O)N[C@H](CC(C)C)C(=O)N2CCC[C@H]2C(=O)O[C@@H]1C | 0.89 |
| CC(=O)N1CCC[C@H]1C(=O)N(C)[C@@H](CC(C)C)C(=O)N[C@@H]1C(=O)N[C@@H](CC(C)C)C(=O)N[C@H](CC(C)C)C(=O)N(C)[C@@H](CC(C)C)C(=O)N[C@@H](C)C(=O)N[C@H](CC(C)C)C(=O)N2CCC[C@H]2C(=O)O[C@@H]1C | 1.4 |
| CC(=O)N1CCC[C@@H]1C(=O)N(C)[C@@H](CC(C)C)C(=O)N[C@@H]1C(=O)N[C@H](CC(C)C)C(=O)N[C@H](CC(C)C)C(=O)N[C@H](CC(C)C)C(=O)N(C)[C@H](C)C(=O)N[C@@H](CC(C)C)C(=O)N2CCC[C@@H]2C(=O)O[C@@H]1C | 1.4 |
| CC(=O)N1CCC[C@@H]1C(=O)N(C)[C@H](CC(C)C)C(=O)N[C@@H]1C(=O)N[C@H](CC(C)C)C(=O)N(C)[C@@H](CC(C)C)C(=O)N[C@H](CC(C)C)C(=O)N(C)[C@H](C)C(=O)N[C@@H](CC(C)C)C(=O)N2CCC[C@H]2C(=O)O[C@@H]1C | 2.1 |
| CC(=O)N1CCC[C@H]1C(=O)N(C)[C@H](CC(C)C)C(=O)N[C@@H]1C(=O)N(C)[C@@H](CC(C)C)C(=O)N(C)[C@H](CC(C)C)C(=O)N(C)[C@@H](CC(C)C)C(=O)N(C)[C@H](C)C(=O)N[C@@H](CC(C)C)C(=O)N2CCC[C@H]2C(=O)O[C@@H]1C | 4.9 |
| CC(=O)N1CCC[C@H]1C(=O)N(C)[C@@H](CC(C)C)C(=O)N[C@@H]1C(=O)N[C@H](CC(C)C)C(=O)N[C@H](CC(C)C)C(=O)N(C)[C@H](CC(C)C)C(=O)N(C)[C@@H](C)C(=O)N[C@@H](CC(C)C)C(=O)N2CCC[C@@H]2C(=O)O[C@@H]1C | 2.1 |
| CC(=O)N1CCC[C@@H]1C(=O)N(C)[C@@H](CC(C)C)C(=O)N[C@@H]1C(=O)N(C)[C@H](CC(C)C)C(=O)N[C@H](CC(C)C)C(=O)N[C@@H](CC(C)C)C(=O)N(C)[C@H](C)C(=O)N[C@@H](CC(C)C)C(=O)N2CCC[C@@H]2C(=O)O[C@@H]1C | 0.66 |
| CC(=O)N1CCC[C@@H]1C(=O)N(C)[C@@H](CC(C)C)C(=O)N[C@@H]1C(=O)N(C)[C@H](CC(C)C)C(=O)N[C@@H](CC(C)C)C(=O)N[C@H](CC(C)C)C(=O)N(C)[C@H](C)C(=O)N[C@@H](CC(C)C)C(=O)N2CCC[C@H]2C(=O)O[C@@H]1C | 6 |
| CC(=O)N1CCC[C@H]1C(=O)N(C)[C@H](CC(C)C)C(=O)N[C@@H]1C(=O)N[C@H](CC(C)C)C(=O)N(C)[C@H](CC(C)C)C(=O)N[C@@H](CC(C)C)C(=O)N(C)[C@H](C)C(=O)N[C@@H](CC(C)C)C(=O)N2CCC[C@H]2C(=O)O[C@@H]1C | 4.8 |
| CC(=O)N1CCC[C@H]1C(=O)N(C)[C@H](CC(C)C)C(=O)N[C@@H]1C(=O)N(C)[C@H](CC(C)C)C(=O)N[C@H](CC(C)C)C(=O)N[C@H](CC(C)C)C(=O)N[C@@H](C)C(=O)N[C@@H](CC(C)C)C(=O)N2CCC[C@H]2C(=O)O[C@@H]1C | 0.41 |
| CC(=O)N1CCC[C@H]1C(=O)N(C)[C@@H](CC(C)C)C(=O)N[C@@H]1C(=O)N(C)[C@H](CC(C)C)C(=O)N(C)[C@@H](CC(C)C)C(=O)N[C@H](CC(C)C)C(=O)N[C@@H](C)C(=O)N[C@H](CC(C)C)C(=O)N2CCC[C@H]2C(=O)O[C@@H]1C | 4.7 |
| CC(=O)N1CCC[C@H]1C(=O)N(C)[C@@H](CC(C)C)C(=O)N[C@@H]1C(=O)N[C@H](CC(C)C)C(=O)N[C@H](CC(C)C)C(=O)N(C)[C@H](CC(C)C)C(=O)N(C)[C@@H](C)C(=O)N[C@@H](CC(C)C)C(=O)N2CCC[C@H]2C(=O)O[C@@H]1C | 1.3 |
| CC(=O)N1CCC[C@H]1C(=O)N(C)[C@@H](CC(C)C)C(=O)N[C@@H]1C(=O)N(C)[C@H](CC(C)C)C(=O)N[C@H](CC(C)C)C(=O)N(C)[C@H](CC(C)C)C(=O)N[C@@H](C)C(=O)N[C@@H](CC(C)C)C(=O)N2CCC[C@@H]2C(=O)O[C@@H]1C | 0.11 |
| CC(=O)N1CCC[C@@H]1C(=O)N(C)[C@H](CC(C)C)C(=O)N[C@@H]1C(=O)N[C@@H](CC(C)C)C(=O)N(C)[C@@H](CC(C)C)C(=O)N(C)[C@@H](CC(C)C)C(=O)N(C)[C@H](C)C(=O)N[C@@H](CC(C)C)C(=O)N2CCC[C@H]2C(=O)O[C@@H]1C | 0.44 |

A selection of 2 entries from above:

| SMILES | PAMPA (10^-6 cm/s) |
|---|---|
| CC(=O)N1CCC[C@@H]1C(=O)N(C)[C@H](CC(C)C)C(=O)N[C@@H]1C(=O)N[C@@H](CC(C)C)C(=O)N(C)[C@@H](CC(C)C)C(=O)N(C)[C@@H](CC(C)C)C(=O)N(C)[C@H](C)C(=O)N[C@@H](CC(C)C)C(=O)N2CCC[C@H]2C(=O)O[C@@H]1C | 0.44 |
| CC(=O)N1CCC[C@H]1C(=O)N(C)[C@H](CC(C)C)C(=O)N[C@@H]1C(=O)N[C@H](CC(C)C)C(=O)N[C@@H](CC(C)C)C(=O)N[C@H](CC(C)C)C(=O)N(C)[C@H](C)C(=O)N[C@H](CC(C)C)C(=O)N2CCC[C@@H]2C(=O)O[C@@H]1C | 0.69 |

Source: CycPeptMPDB (Li et al. 2023), which took these values from Kelly et al. 2021, doi:10.1021/jacs.0c06115.